This is a selection; strong and weak results do not stand in their true shares. Calls of active or inactive are those of the source.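 Rule for the calls: active = interference check ratio from 0.5 to 1.5 plus GFP to RFP signal ratio inhibition reaching or exceeding a fixed threshold (cut at about 30% in these data, passing the limit was not always enough); inactive = the rest.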

This test can be described thus: suppressors of acrylamide-induced Pgst-4::GFP reporter in worms, primary screen, SKN-1 inhibitor project, whole organism, uHTS, GFP/RFP fluorescence ratio, strain VP596 (AID 624304). The settings on record: C. elegans VP596 Pgst-4::GFP/RFP ratio, 24 h, at 21.8 µM, stronger effect = higher value.
With `CCOC(=O)Nc1ccc([As](=O)(O)O)c(O)c1`, the inhibition is inactive: -11.1%.

Consider `O=C(O)C(O)c1ccc(N(CCCl)CCCl)cc1` (stereo unspecified), for which the inhibition is inactive: 5.05%.

With `CCCCOc1ccc(C(=O)NCC2(N3CCCCC3)CCCCC2)cc1OC`, the inhibition is inactive: 10.9%.

`Cc1cc(SC(NC(=O)c2ccccc2)C(Cl)(Cl)Cl)nc(C(C)C)n1` (stereo unspecified): the inhibition is inactive: -4.1%.

In the case of `COP(=O)(OC)N1CC1c1ccccc1` (stereo unspecified), the inhibition is inactive: 9.85%.

Turning to `COC(=O)C1(C)COP(=O)(N2CCCCCC2)OC1` (stereo unspecified), the inhibition was inactive: -23.7%.

For the molecule `CC(C)c1ccc(OP(=O)(Nc2ccccn2)Oc2ccccc2F)cc1` (stereo unspecified), the inhibition is inactive: -18.7%.

Consider `ClCCSc1nnc(-c2cccnc2)o1`, for which the inhibition was inactive: -3.89%.

Regarding `CC(C)NC(=O)NP(=O)(Oc1ccccc1)Oc1ccccc1`, the inhibition is inactive: -10.7%.

Turning to `O=C(OC1CN2CCC1CC2)c1cccc2[nH]cnc12` (stereo unspecified), the inhibition was inactive: -2.03%.

On to `CCN(CC)C(=S)SC(NC=O)C(Cl)(Cl)Cl` (stereo unspecified), for which the inhibition is inactive: 15.9%.

Turning to `O=[N+]([O-])c1cc([N+](=O)[O-])c(-c2ccn[nH]2)s1`, the inhibition is inactive: -7.96%.

In the case of `O=[As](O)(c1ccc(O)cc1)c1ccccc1O`, the inhibition was inactive: 10.7%.

As to `C[As](=O)(O)c1cccc(C(=O)O)c1`, the inhibition was inactive: 1.79%.

Turning to `O=[N+]([O-])c1ccc(-c2cc([N+](=O)[O-])c(O)c([N+](=O)[O-])c2)cc1`, the inhibition was inactive: -9.44%.

`COc1cc(C(=O)NCC2(N3CCOCC3)CCCCC2)ccc1OCC(C)C`: the inhibition was inactive: -7.46%.

As to `Cc1ccc2nc3c(c(C)c2c1)CC(C(Cl)Cl)S3` (stereo unspecified), the inhibition is inactive: 12.2%.

Turning to `[N-]=[N+]=NC1CCCCC1NC(=O)c1cc([N+](=O)[O-])cc([N+](=O)[O-])c1` (stereo unspecified), the inhibition is inactive: -0.0133%.

For the molecule `Cc1ccc(OP(=O)(Nc2ccc([N+](=O)[O-])cn2)Oc2ccc(C)cc2)cc1`, the inhibition is inactive: -0.203%.

For the molecule `COc1ccc(N/C(=N/P(=O)(N2CCOCC2)N2CCOCC2)N2CCOCC2)cc1`, the inhibition is inactive: -6.71%.

Regarding `O=[N+]([O-])c1cc(Oc2ccc([N+](=O)[O-])cc2C(F)(F)F)cc([N+](=O)[O-])c1`, the inhibition was inactive: 5.63%.

`O=C(OC1CN2CCC1CC2)C12CC3CC(CC(C3)C1)C2` (stereo unspecified): the inhibition was inactive: 4.93%.

Turning to `Cc1cc(=O)[nH]c(N[N+](=O)[O-])n1`, the inhibition is inactive: -1.79%.

For `Cc1c2c(nc3ccccc13)SC(C(Cl)Cl)C2` (stereo unspecified), the inhibition was inactive: 18.5%.

`COc1ccc2nc(NP(=O)(c3ccccc3)c3ccccc3)sc2c1`: the inhibition was inactive: 2.67%.

Take `COc1cc(I)ccc1[As](=O)(O)O`: the inhibition was inactive: -8.88%.

Consider `O=P1(N(CCCl)CCCl)Nc2ccccc2N1`, for which the inhibition was inactive: 5.26%.

With `O=P1(N(CCCl)CCCl)OCCCN1CCCl` (stereo unspecified), the inhibition is inactive: 18%.

As for `CCCOP(=S)(Nc1nc(N)cc(=O)[nH]1)OCCC`, the inhibition was inactive: 4.49%.

For the molecule `Nc1cccc2c([As](=O)(O)O)cccc12`, the inhibition was inactive: 41.1%.

Consider `Cc1ccc(NCCc2c([N+](=O)[O-])cc([N+](=O)[O-])cc2[N+](=O)[O-])cc1`, for which the inhibition is inactive: 3.36%.

As to `COc1cc(C2NCCC3(OCCO3)C2(C)C)cc(OC)c1OC` (stereo unspecified), the inhibition was inactive: -5.73%.

Regarding `CCOP(=O)(Nc1cccc2ccccc12)OCC`, the inhibition was inactive: 10.5%.

Consider `O=[As](O)(O)c1cccnc1`, for which the inhibition is inactive: -1.4%.

In the case of `COc1cc(C(=O)NCC2(N3CCOCC3)CCCCC2)cc(Cl)c1OC(C)C`, the inhibition is inactive: 6.86%.

Take `CS(=O)(=O)c1ccc(Cl)c(NC(=O)COC(=O)C(O)(c2ccccc2)c2ccccc2)c1`: the inhibition was inactive: -4.99%.

Regarding `O=C(OC1CN2CCC1CC2)c1ccc(Cl)cc1` (stereo unspecified), the inhibition was inactive: -8.48%.

Consider `Cc1cccc(OCC(=O)OC2CN3CCC2CC3)c1` (stereo unspecified), for which the inhibition is inactive: -4.15%.

For the molecule `O=[As](O)(c1cccc(O)c1)c1cccc(O)c1`, the inhibition was inactive: -0.858%.

With `NC(=O)Nc1ccc([As](=O)(O)O)cc1`, the inhibition was inactive: 10.1%.

`O=[N+]([O-])c1ccc2c(c1)nnn2O`: the inhibition was inactive: -20.7%.

With `CN(C)C(=O)c1cc([N+](=O)[O-])cc2c1-c1c(cc([N+](=O)[O-])cc1[N+](=O)[O-])C2=O`, the inhibition was inactive: -17.3%.

For `CN(C(=O)Cc1ccc(Cl)c(Cl)c1)[C@H]1CC[C@@]2(CCCO2)C[C@@H]1N1CCCC1`, the inhibition is inactive: 5.23%.

For `N#CCCN(C(=O)COC(=O)C(O)(c1ccccc1)c1ccccc1)c1ccc(F)cc1`, the inhibition was inactive: 5.52%.

For `CCOP1(=S)c2c(C)nn(CCC#N)c2N=C(c2ccc(F)cc2)N1C` (stereo unspecified), the inhibition was inactive: -7.69%.

With `CN(C(=O)Cc1ccccc1)[C@@H]1CC[C@]2(CCCO2)C[C@H]1N1CCCC1`, the inhibition is inactive: 5.23%.

Consider `CS(=O)(=O)c1cc([N+](=O)[O-])c2no[n+]([O-])c2c1`, for which the inhibition was inactive: -1.82%.

As to `CCOP1(=S)c2c(C)nn(CCC#N)c2N=C(c2ccccc2F)N1C` (stereo unspecified), the inhibition was inactive: 15.2%.

For `O=P(Nc1nccs1)(Oc1ccccc1)Oc1ccccc1`, the inhibition was inactive: 1.76%.

In the case of `O=P(Nc1nccs1)(c1ccccc1)c1nc2ccccc2s1` (stereo unspecified), the inhibition was inactive: 20.2%.

Consider `Nc1ccccc1[As](=O)(O)c1ccccc1`, for which the inhibition was inactive: -9.69%.

As to `O=C(O)COc1ccc([As](=O)(O)O)cc1[N+](=O)[O-]`, the inhibition is inactive: 17.7%.

In the case of `O=P1(Nc2ncccn2)COc2ccccc2OC1`, the inhibition was inactive: -9.43%.

On to `Cc1ccc(S(=O)(=O)N(CCCN)CCCc2c(C)nc(N)[nH]c2=O)cc1`, for which the inhibition was inactive: -14.2%.

For `O=[As](O)(c1cccs1)c1cccs1`, the inhibition is inactive: 13.8%.

With `Cc1ccc(OCC(=O)OC2CN3CCC2CC3)cc1` (stereo unspecified), the inhibition is inactive: 6.16%.

With `O=P1(Nc2ccc(Br)cn2)COc2ccccc2OC1`, the inhibition is inactive: -17.9%.

As for `NS(=O)(=O)c1cccc(NC(=O)COC(=O)C(O)(c2ccccc2)c2ccccc2)c1`, the inhibition was inactive: -16.4%.

With `Nc1cccc([As](=O)(O)c2ccccc2)c1`, the inhibition was inactive: -5.63%.

Consider `Cc1nn(-c2ccccc2)c2c1P(=O)(N1CCOCC1)N(C)C(c1ccccc1)=N2` (stereo unspecified), for which the inhibition is inactive: 6.7%.

For `CC1CCC(C(C)C)C(OP(=O)(Nc2ccccn2)c2ccccc2)C1` (stereo unspecified), the inhibition was inactive: 0.349%.

For the molecule `Cc1ccc(C(=O)OC2CN3CCC2CC3)cc1` (stereo unspecified), the inhibition was inactive: -8.37%.

Turning to `O=C(/C=C/c1ccccc1)OC1CN2CCC1CC2` (stereo unspecified), the inhibition is inactive: -2.56%.

With `CCCC1OP(=O)(Nc2ccccc2)OCC1CC` (stereo unspecified), the inhibition is inactive: 11.8%.

Take `CN(C)C1(CNC(=O)c2ccc(S(C)(=O)=O)cc2)CCCCC1`: the inhibition is inactive: -15.3%.

As for `COc1ccccc1CNC(=O)COC(=O)C(O)(c1ccccc1)c1ccccc1`, the inhibition is inactive: -14.6%.

On to `CC1(CBr)Cn2c(nc3ccccc3c2=O)S1` (stereo unspecified), for which the inhibition is inactive: 13.7%.

As for `CC(C)/C=N\N=C(\N)N[N+](=O)[O-]`, the inhibition is inactive: 2.17%.

As for `CN(C(=O)Cc1ccc(Cl)c(Cl)c1)[C@@H]1CCCC[C@H]1N1CCCC1`, the inhibition was inactive: 14.4%.

With `CCOP(=O)(Nc1ccc(C)cn1)OCC`, the inhibition was inactive: 3.15%.

In the case of `CN(CCCl)Cc1cc(Cl)c(NC2=NCCN2)c(Cl)c1`, the inhibition is inactive: 10.9%.

On to `O=P1(Nc2ccccn2)COc2ccccc2OC1`, for which the inhibition was inactive: -30.5%.

Regarding `CCC1=CC2Cc3nc4ccc(Cl)cc4c(N)c3C(C1)C2` (stereo unspecified), the inhibition was inactive: -0.904%.

For the molecule `O=P1(N(CCCl)CCCl)NCCC(C(F)(F)F)O1` (stereo unspecified), the inhibition is inactive: 20.7%.

For the molecule `Clc1n[nH]nc1-c1nn[nH][15n]1`, the inhibition is inactive: -12.1%.

With `CC(C)(C)C(=O)NC(Sc1ncccn1)C(Cl)(Cl)Cl` (stereo unspecified), the inhibition was inactive: -2.23%.

These data come from PubChem BioAssay AID624304 (Sanford-Burnham Center for Chemical Genomics, 2012).
